Measured values taken from paper PMC11440508, “Dually Labeled Neurotensin NTS1R Ligands for Probing Radiochemical and Fluorescence-Based Binding Assays” (Journal of Medicinal Chemistry, 2024).

Chains of the proteins cited; added tags and fusions are not shown. Lines headed by an entry give the natural chain unless they say otherwise; changes in a name come on top.
UniProt P30989, whole entry: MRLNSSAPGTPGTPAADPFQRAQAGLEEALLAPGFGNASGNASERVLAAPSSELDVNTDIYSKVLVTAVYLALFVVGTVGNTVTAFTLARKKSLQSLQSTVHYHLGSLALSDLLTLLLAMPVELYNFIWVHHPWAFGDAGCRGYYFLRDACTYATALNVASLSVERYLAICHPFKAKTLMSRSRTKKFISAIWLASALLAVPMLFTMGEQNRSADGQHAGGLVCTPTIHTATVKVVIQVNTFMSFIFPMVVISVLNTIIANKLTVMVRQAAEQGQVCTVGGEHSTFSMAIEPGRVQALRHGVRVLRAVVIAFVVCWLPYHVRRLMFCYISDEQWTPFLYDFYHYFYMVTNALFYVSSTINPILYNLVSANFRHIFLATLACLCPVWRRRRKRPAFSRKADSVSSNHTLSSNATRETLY
UniProt O95665: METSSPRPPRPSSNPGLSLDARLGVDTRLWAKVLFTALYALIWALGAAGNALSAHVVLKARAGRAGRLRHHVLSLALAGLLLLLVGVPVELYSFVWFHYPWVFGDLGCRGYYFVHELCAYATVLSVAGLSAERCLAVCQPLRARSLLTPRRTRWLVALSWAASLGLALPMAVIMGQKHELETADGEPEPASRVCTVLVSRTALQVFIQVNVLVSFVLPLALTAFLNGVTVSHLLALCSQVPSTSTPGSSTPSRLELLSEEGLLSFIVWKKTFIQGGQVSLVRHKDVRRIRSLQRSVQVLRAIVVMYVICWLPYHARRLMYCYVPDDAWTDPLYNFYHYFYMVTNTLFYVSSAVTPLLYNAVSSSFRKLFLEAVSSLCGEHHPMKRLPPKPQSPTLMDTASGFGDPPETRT

Columns and labels:
NTS1R (Homo sapiens) = NTS1R (Homo sapiens) (UniProt P30989); conditions: cited from earlier work
[1] = biological target: human neurotensin receptor type 2 (hNTS2R) in homogenates of HEK293T cells (human) (UniProt O95665); assay: radioligand binding; competition with [^3H]UR-MK300 at homogenates of HEK293T cells transiently transfected with hNTS2R; Tris buffer (50 mM Tris HCl, 1 mM EDTA, pH 7.4) with 0.1% BSA

Ki [1] [nM] | Substance | Ki (NTS1R (Homo sapiens)) [nM]
– | NT(8–13) 8-13 (from UniProt P30990) | 0.29
0.62 | NT(8–13) (peptide) | –
